{"sequences": {"note": "Sequences of proteins named here, by UniProt entry; tags and fusion partners are left off.", "UniProt P49146, whole entry": "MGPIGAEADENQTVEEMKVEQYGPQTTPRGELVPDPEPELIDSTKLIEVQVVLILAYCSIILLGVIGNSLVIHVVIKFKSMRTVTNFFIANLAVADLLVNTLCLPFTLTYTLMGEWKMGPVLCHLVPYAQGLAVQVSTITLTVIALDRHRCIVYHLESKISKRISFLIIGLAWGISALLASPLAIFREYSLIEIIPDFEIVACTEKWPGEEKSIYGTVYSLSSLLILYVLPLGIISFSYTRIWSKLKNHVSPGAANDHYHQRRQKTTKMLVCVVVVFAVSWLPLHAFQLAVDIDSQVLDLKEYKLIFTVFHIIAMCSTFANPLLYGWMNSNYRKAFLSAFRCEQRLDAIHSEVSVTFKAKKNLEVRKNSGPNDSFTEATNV"}, "source": "patent US20120129870A1", "about": "“PIPERAZINYL DERIVATIVES USEFUL AS MODULATORS OF THE NEUROPEPTIDE Y2 RECEPTOR” (priority 2007, published 2012)", "target": "NPY Y2 receptor (Homo sapiens, UniProt P49146)", "assay": "Neuropeptide Y2 radioligand binding assay ([125I]PYY, KAN-Ts membranes)", "details": "KAN-Ts membranes endogenously expressing Y2, [125I]PYY (80 pM), 1 h at rt"}
{"smiles": "CCC(CC)C(=O)Nc1ccc(N2CCN(C(C#N)c3ccco3)CC2)c(F)c1", "note": "(stereo not shown)", "values": [{"measurement": "IC50", "value": "> 10", "unit": "µM"}]}
